## Antibody variant affinities, Ab-14 light chain, assay B

Binding partner: SARS-CoV-2 spike HR2 peptide, sequence PDVDLGDISGINAS.

The variants keep the heavy chain, the linker and the frameworks of Ab-14 (scFv order VH, three GGGGS repeats, VL).
VH: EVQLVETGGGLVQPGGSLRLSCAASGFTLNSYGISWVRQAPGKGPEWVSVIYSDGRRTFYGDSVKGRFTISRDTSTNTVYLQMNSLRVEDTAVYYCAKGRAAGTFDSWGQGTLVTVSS
VL: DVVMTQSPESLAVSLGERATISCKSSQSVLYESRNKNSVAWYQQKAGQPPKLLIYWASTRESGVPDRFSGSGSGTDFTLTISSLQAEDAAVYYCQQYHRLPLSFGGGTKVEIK

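The starting antibody came from a phage panning campaign against this peptide. Designed CDR sequences, proposed from the first random library and measured here. Group labels follow the data file (Ctrl: baseline library sampled from a position-specific scoring matrix, with some repeated check sequences; Rand: our label for a block that the file lists under HC and that is probably the random mutants of the ten best first-round binders; En: ensemble of fine-tuned language models; GP: Gaussian process model; HC: hill climbing; Gen: genetic algorithm; Gibbs: Gibbs sampling; a sequence that several methods proposed may carry one label only). AlphaSeq pools MATa yeast showing the antibodies with MATalpha yeast showing the peptide. Mating (16 h, 30 °C) was followed by selection of diploids and sequencing of their barcodes. Read counts were normalised to the haploid input and turned into Kd by a linear fit to BCL2-family pairs of known affinity, for each replicate. Mating was done six times.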

Each variant is given by its three light chain CDRs, as the data file delimits them; those of the parent are KSSQSVLYESRNKNSVA, WASTRES, QQYHRLPLS. Numbers give log10(Kd / nM), so 0 is 1 nM and 3 is 1 µM. Smaller is tighter. Replicates are averaged; those with no signal do not enter the mean. An entry "nd" has no value in the source: the pair was not observed among the diploids in any replicate. This suggests poor binding but is not conclusive. Background: pairings of all light chain designs with three empty control strains gave a value in 4% of cases (median 2.64, 5th percentile 1.59). Values in that range, when seen in few replicates, are hard to tell from nonspecific mating. The control count says in how many pairings with the empty strains this scFv gave a signal. In the paper, a design with two or fewer of six values counts as a poor binder. The parent sequence was in this pool as ten entries: three were never detected, three once, and four in most replicates, with averages from 0.34 to 2.37. A sequence measured in both rounds can read differently, since the two assays cover different ranges.

With KSSQSVLEESRNKNSVA, AASTRES, QQYHRLPLS [Ctrl] the result was 0.47 (6 of 6 replicates; controls 1 of 18).
With HISQMVMYGSCNKNNVA, QVTLREE, QQYHRLPLS [En_HC] the result was 0.69 (6 of 6 replicates; controls 2 of 18).
With KSSQSVLYESRNKNSVA, GASTRES, QQYHRIPLS [Ctrl] the result was 2.27 (4 of 6 replicates; controls 0 of 18).
With KSSQSVLGESRNKNSVA, AASTRES, QQYHRLPLS [Ctrl] the result was 0.93 (6 of 6 replicates; controls 0 of 18).
With KLSQSQLYESRNKNSVA, NASTRLS, QDYHRLPLS [GP_Gen] the result was 0.40 (6 of 6 replicates; controls 0 of 18).
With MISQLMNMGQFAINSVA, QANIRNS, QQYDRLPLI [En_Gen] the result was 1.25 (6 of 6 replicates; controls 1 of 18).
With KLRHHNLDFYEFENNIA, GESMRAV, QQYYRLPLN [En_Gibbs] the result was nd (0 of 6 replicates; controls 0 of 18).
With KCSQSVLQESRNKNNVA, EASQRES, QQYHRLPLS [GP_Gibbs] the result was 0.36 (6 of 6 replicates; controls 4 of 18).
With KFSQIVLYDSRNKNSVA, WAYTRES, QQYHRLPLS [Ctrl] the result was nd (0 of 6 replicates; controls 0 of 18).
With VLSQSELYESRNKNSVA, NASTRES, QQYHRLPLS [GP_Gen] the result was -0.07 (6 of 6 replicates; controls 0 of 18).
With KFSQLWLYESRNKNSVA, NASTRES, QQYRRLPLS [GP_Gibbs] the result was -0.53 (6 of 6 replicates; controls 0 of 18).
With TIGQVMNYESRNTNSVA, QTSTREE, QDYDRLPLS [En_HC] the result was 1.50 (3 of 6 replicates; controls 0 of 18).
With KQSWSEDYGSRNKNSVA, DASQRES, QDYHRLPLS [GP_Gibbs] the result was 0.33 (6 of 6 replicates; controls 0 of 18).
With KSSISYEYESMNKNSVA, EASTRES, QQYHRLPLS [GP_HC] the result was 0.32 (6 of 6 replicates; controls 0 of 18).
With KAYPSYLYESRNKNSVA, QASTRES, QQYHLLPLS [GP_HC] the result was 0.17 (6 of 6 replicates; controls 0 of 18).
With HVHMLMAIWQEISNNIA, DAQNRNA, QQYFRLPLA [En_Gibbs] the result was nd (0 of 6 replicates; controls 0 of 18).
With KLPQSHLYESRNKNSVA, NASTRES, QQYHRLPLS [GP_Gen] the result was -0.22 (6 of 6 replicates; controls 1 of 18).
With MVTQLAMTGMMSKRSVA, NAETRET, QQYHRLPLI [En_Gen] the result was 0.73 (6 of 6 replicates; controls 0 of 18).
With KFSQSWLYESRNKNSVA, NASTRES, QQYHRLPLS [GP_Gen] the result was -0.11 (6 of 6 replicates; controls 1 of 18).
With KSSQSVLYESGNKNSVA, WASTRES, QQYHRLELS [Ctrl] the result was 3.84 (1 of 6 replicates; controls 0 of 18).
With KSSQSVLSESGNKNSVA, WASTRGS, QQYHRYPLS [Ctrl] the result was 2.03 (1 of 6 replicates; controls 0 of 18).
With KLLESIHVESKQKNNVA, DNSTRES, QDYHRLPLS [En_HC] the result was 2.80 (5 of 6 replicates; controls 2 of 18).
With KLNEYKHETEEKTQNIA, DQTIRVP, QQYAHLPLA [En_Gibbs] the result was 0.22 (6 of 6 replicates; controls 0 of 18).
With TIGQTLMSGVRNRSNVA, EVSERLN, QQYDRLPLL [En_Gen] the result was 1.41 (6 of 6 replicates; controls 2 of 18).
With KVSQSYEYESNNSNSVA, NASQREH, QQYHRLPLS [GP_Gibbs] the result was 0.51 (6 of 6 replicates; controls 2 of 18).
With KLSMSELYESRNKNSVA, EASQRES, QQYHRLPLS [GP_Gen] the result was -0.07 (6 of 6 replicates; controls 3 of 18).
With KSSMSVLYESRDKNSVA, WASTRES, QQYHRLPLS [Ctrl] the result was 2.47 (2 of 6 replicates; controls 2 of 18).
With KLVQPDDNDNQHMRNVA, DENTLGQ, QQYNRLPLG [En_Gibbs] the result was 1.25 (5 of 6 replicates; controls 0 of 18).
With KSSHSVLFESRNKNSVA, DASTRES, QQYHRLPLS [Rand] the result was 0.18 (6 of 6 replicates; controls 2 of 18).
With TLTQVQGMESHNKDNVA, DLSTRGS, QQYDRLPLS [En_HC] the result was 0.36 (6 of 6 replicates; controls 1 of 18).
With MLSYNLHDMDRNKNNVA, EMNKSTT, QDYHRLPLA [En_Gibbs] the result was 0.50 (6 of 6 replicates; controls 1 of 18).
With KLSMITGHMSMQRNNVA, EMVTREN, QQYDRLPLA [En_Gen] the result was 1.34 (6 of 6 replicates; controls 0 of 18).
With KSSQSVLYESTNKNSVA, QASTRES, QQYHRLPLS [Ctrl] the result was 0.46 (6 of 6 replicates; controls 0 of 18).
With KLQQSELYESRNKNSVA, NASTRMQ, QQYHRLPLS [GP_Gen] the result was -0.19 (6 of 6 replicates; controls 0 of 18).
With KLPQSELYESRNKNSVA, NASERES, QQYHRLPLS [GP_Gen] the result was 0.70 (6 of 6 replicates; controls 0 of 18).
With KLSQSDLYEMRNKNSVA, EASTREV, QQYHRLPLS [GP_Gibbs] the result was 0.45 (6 of 6 replicates; controls 0 of 18).
With HMSMLTLGGLKERNSVA, QMTTREN, QQYDRLPLS [En_Gen] the result was 1.44 (6 of 6 replicates; controls 0 of 18).
With KSLQSVLYESRNKNSVA, HASTRED, QQYHRLPES [Rand] the result was nd (0 of 6 replicates; controls 1 of 18).
With KLHQSWLYESRQINSVA, NASQRCS, QQYHRLPLS [GP_Gibbs] the result was 0.25 (6 of 6 replicates; controls 1 of 18).
With HITMGMYVAGRHHSSIA, QAEERAK, QQYDRLPLI [En_Gen] the result was 1.42 (6 of 6 replicates; controls 1 of 18).
With SITVIDNPGSQLHNNIA, SGSCRAE, QQYIRLPLI [En_Gibbs] the result was 0.39 (6 of 6 replicates; controls 0 of 18).
With KSSQSDLYESNNKNSVA, WASTRES, QQYHRLPLS [Ctrl] the result was 0.74 (6 of 6 replicates; controls 0 of 18).
With KLLQTVKNGSYNRNNVA, HMTMRED, QQYFRLPLS [En_HC] the result was 1.34 (3 of 6 replicates; controls 0 of 18).
With KVSQSILCESRNKNSVA, DASTRES, QQYHRLPLS [GP_HC] the result was -0.28 (6 of 6 replicates; controls 2 of 18).
With QLSGMTAHESVKKQNVA, ERSTRGE, QQYNRLPLS [En_Gen] the result was -0.14 (6 of 6 replicates; controls 0 of 18).
With KSSQSVLYESRNKNSVA, QASTRES, QQYHRLVLS [Ctrl] the result was 1.55 (5 of 6 replicates; controls 0 of 18).
With KLSMSMRFLTLEKNSIA, ELVTRMS, QQYHRLPLS [En_HC] the result was nd (0 of 6 replicates; controls 0 of 18).
With KSSPSVLYESQNKNSVA, NASTRMS, QQYHRLPLS [GP_HC] the result was -0.13 (6 of 6 replicates; controls 0 of 18).
With KLSIMYQHTSRNKNNIA, ERSTRED, QQYHHLPLS [En_HC] the result was 0.21 (6 of 6 replicates; controls 0 of 18).
With KVSQSVLMESRNKNSVA, EASTRES, QQYHRLPLS [GP_Gen] the result was 0.11 (6 of 6 replicates; controls 0 of 18).

The measurements come from Li et al. 2023 (doi:10.1038/s41467-023-39022-2) through the FLAb antibody collection.